Data: ChEMBL document CHEMBL2385050 (J Med Chem, 2013)

The chains behind the UniProt entries cited, without tags or fusion partners. Where a name states a change or a piece, a line headed by the entry shows the natural chain unless it says otherwise.
UniProt P11511: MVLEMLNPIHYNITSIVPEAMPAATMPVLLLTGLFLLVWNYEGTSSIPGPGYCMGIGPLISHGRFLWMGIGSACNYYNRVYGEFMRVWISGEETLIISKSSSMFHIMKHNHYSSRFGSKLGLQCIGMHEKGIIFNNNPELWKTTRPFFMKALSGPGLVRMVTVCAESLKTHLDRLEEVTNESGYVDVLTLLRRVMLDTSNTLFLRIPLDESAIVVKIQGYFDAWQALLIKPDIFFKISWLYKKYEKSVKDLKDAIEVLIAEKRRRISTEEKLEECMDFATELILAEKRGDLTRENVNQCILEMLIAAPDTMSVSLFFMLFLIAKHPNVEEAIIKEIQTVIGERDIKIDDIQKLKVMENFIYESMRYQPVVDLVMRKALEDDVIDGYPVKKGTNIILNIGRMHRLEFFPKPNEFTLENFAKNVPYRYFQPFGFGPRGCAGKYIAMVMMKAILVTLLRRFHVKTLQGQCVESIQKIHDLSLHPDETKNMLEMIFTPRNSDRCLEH

Experiments:
[1] = biological target: T1, Aromatase (Homo sapiens, UniProt P11511); experiment: Inhibition of human recombinant microsomal aromatase using 7-methoxy-4-trifluoromethylcoumarin as substrate by Lineweaver-Burk plot analysis
How it was run: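 CYP19 MFC-to-HFC fluorometric assay run at several substrate concentrations. Inhibition data shown as Lineweaver–Burk plots to define mechanism. Ki derived by nonlinear least-squares regression.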

[2] = biological target: T1, Aromatase; experiment: Inhibition of human recombinant placental aromatase
How it was run: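 Recombinant human aromatase (CYP19) in microsomal incubations with fluorogenic substrate MFC, read as conversion to HFC. Compounds in methanol or methanol/dichloromethane, prewarmed 10 min at 37 °C with NADPH-regenerating mix, then enzyme/substrate in 0.1 M potassium phosphate pH 7.4 added. Incubation 30 min, stopped with Tris base in acetonitrile, fluorescence at 409/530 nm. Activity given as % of vehicle control.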

[3] = biological target: T1, Aromatase; experiment: Inhibition of human recombinant microsomal aromatase-mediated 7-methoxy-4-trifluoromethylcoumarin conversion to 7-hydroxytrifluoromethylcoumarin preincubated for 10 mins measured after 30 mins by fluorescence assay
How it was run: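 Recombinant human CYP19 with MFC substrate in 0.1 M potassium phosphate pH 7.4; samples in methanol or methanol/dichloromethane, prewarmed 10 min at 37 °C with NADPH-generating cofactor mix (NADP+, MgCl2, glucose-6-phosphate, G6PDH), then 30 min reaction, stopped with 0.1 M Tris base in acetonitrile. HFC fluorescence read at ex/em 409/530 nm against standard curve; IC50 from one-site competition fit versus vehicle control.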

Structure (SMILES) | Ki [1] [nM] | IC50 [2] [nM] | IC50 [3] [nM]
CCC(=C(c1ccc(O)cc1)c1ccc(OCCN)cc1)c1ccccc1 | 77 | 90 | 102
CC/C(=C(\c1ccc(O)cc1)c1ccc(OCCN)cc1)c1ccccc1 | 442 | – | 1030
CC/C(=C(/c1ccc(O)cc1)c1ccc(OCCN)cc1)c1ccccc1 | 48 | 90 | 76.8
